Data from US20050250137A1, “Molecular targets of cancer and aging” (priority 2002, published 2005).

Assays:
MDAH087-1 cells [1] = settings: for 659_at 1-5aza Ave Signal Log / ALDH1A3 36686_at 1-5aza Ave Signal Log / KIAA1750 32730_at 1-5aza Ave Signal Log: treated vs untreated immortal MDAH087-1
MDAH087-N cells [2] = test system: MDAH087-N cells
MDAH087-1 cells [3] = settings: average fold change Q-RT-PCR
MDAH087-10 cells [4] = settings: average fold change Q-RT-PCR
MDAH087-N cells [5] = settings: average fold change Q-RT-PCR
MDAH087-1 cells [6] = assay: Western blot protein expression after 5-aza-dC, MDAH087-1; format: cell-based, human
MDAH087-N cells [7] = assay: Western blot protein expression after 5-aza-dC, MDAH087-N; format: cell-based, human
MDAH087-10 cells [8] = assay: Western blot protein expression after 5-aza-dC, MDAH087-10; format: cell-based, human
[9] = MDAH087-1, average fold change microarray
[10] = Table 9 microarray, MDAH087-1, 5-aza-dC-treated vs untreated immortal cells
[11] = MDAH087-N, average fold change microarray
[12] = Table 9 microarray, MDAH087-N, 5-aza-dC-treated vs untreated immortal cells
[13] = fold cell, treated vs untreated immortal MDAH087-N
[14] = log2 cell, treated vs untreated immortal MDAH087-N
[15] = MDAH087-1 treated with 5-aza-dC
[16] = MDAH087-N treated with 5-aza-dC
[17] = MDAH087-10 treated with 5-aza-dC

`Nc1ncn([C@H]2C[C@H](O)[C@@H](CO)O2)c(=O)n1` [5-aza-dC, 5-aza-2′-deoxycytidine] was tested, and the “CREG expression, IM vs 5-aza-dC, MA” value (MDAH087-1 cells [1]; [9]) was 4.10 fold, the “KIAA1750 expression, IM vs 5-aza-dC, MA” value (MDAH087-1 cells [1]; [9]) was 3.28 fold and the “SERPINB2 expression, IM vs 5-aza-dC, MA” value (MDAH087-1 cells [1]; [9]) was 8.8 fold. The “STAT1α expression, IM vs 5-aza-dC, MA” value (MDAH087-1 cells [1]; [9]) was 1.05 fold, the “TNFAIP2 expression, IM vs 5-aza-dC, MA” value (MDAH087-1 cells [1]; [9]) was 3.08 fold and the “CREG expression, 5A” value (MDAH087-1 cells [1]; [10]) was 4.1 fold. The “HTATIP2 expression, 5A” value (MDAH087-1 cells [1]; [10]) was 2.0 fold, the “SERPINB2 expression, 5A” value (MDAH087-1 cells [1]; [10]) was 8.8 fold and the “659_at 1-5aza Ave Signal Log” value (MDAH087-1 cells [1]; fold cell) was 4.69. The “ALDH1A3 36686_at 1-5aza Ave Signal Log” value (MDAH087-1 cells [1]; fold cell) was 2.29, the “KIAA1750 32730_at 1-5aza Ave Signal Log” value (MDAH087-1 cells [1]; fold cell) was 3.28 and the “659_at 1-5aza Ave Signal Log” value (MDAH087-1 cells [1]; log2 cell) was 2.29. The “ALDH1A3 36686_at 1-5aza Ave Signal Log” value (MDAH087-1 cells [1]; log2 cell) was 1.19, the “KIAA1750 32730_at 1-5aza Ave Signal Log” value (MDAH087-1 cells [1]; log2 cell) was 1.71 and the “ALDH1A3 expression, IM vs 5-aza-dC, MA” value (MDAH087-N cells [2]; [11]) was 3.2 fold. The “CLTB expression, IM vs 5-aza-dC, MA” value (MDAH087-N cells [2]; [11]) was 2.4 fold, the “CREG expression, IM vs 5-aza-dC, MA” value (MDAH087-N cells [2]; [11]) was 1.55 fold and the “IGFBP4 expression, IM vs 5-aza-dC, MA” value (MDAH087-N cells [2]; [11]) was 1.84 fold. For the same molecule, the “IGFBPrP1 expression, IM vs 5-aza-dC, MA” value (MDAH087-N cells [2]; [11]) was 3.02 fold, the “SERPINB2 expression, IM vs 5-aza-dC, MA” value (MDAH087-N cells [2]; [11]) was 10.7 fold and the “STAT1α expression, IM vs 5-aza-dC, MA” value (MDAH087-N cells [2]; [11]) was 1.99 fold. For the same molecule, the “TNFAIP2 expression, IM vs 5-aza-dC, MA” value (MDAH087-N cells [2]; [11]) was 5.41 fold, the “ALDH1A3 expression, 5A” value (MDAH087-N cells [2]; [12]) was 3.2 fold and the “CLTB expression, 5A” value (MDAH087-N cells [2]; [12]) was 2.4 fold. For the same molecule, the “IGFBPrP1 expression, 5A” value (MDAH087-N cells [2]; [12]) was 3.0 fold, the “SERPINB2 expression, 5A” value (MDAH087-N cells [2]; [12]) was 10.7 fold and the “TNFAIP2 expression, 5A” value (MDAH087-N cells [2]; [12]) was 5.4 fold. The “659_at N-5aza Ave Signal Log” value (MDAH087-N cells [2]; [13]) was 7.98, the “ALDH1A3 36686_at N-5aza Ave Signal Log” value (MDAH087-N cells [2]; [13]) was 3.24 and the “KIAA1750 32730_at N-5aza Ave Signal Log” value (MDAH087-N cells [2]; [13]) was 5.10. For the same molecule, the “659_at N-5aza Ave Signal Log” value (MDAH087-N cells [2]; [14]) was 3.00, the “KIAA1750 32730_at N-5aza Ave Signal Log” value (MDAH087-N cells [2]; [14]) was 2.35 and the “ALDH1A3 expression, IM vs 5-aza-dC, QP” value (MDAH087-1 cells [3]) was 69.28 fold. For the same molecule, the “CLTB expression, IM vs 5-aza-dC, QP” value (MDAH087-1 cells [3]) was 3.08 fold, the “CREG expression, IM vs 5-aza-dC, QP” value (MDAH087-1 cells [3]) was 4.93 fold and the “HSPA2 expression, IM vs 5-aza-dC, QP” value (MDAH087-1 cells [3]) was 24.43 fold. For the same molecule, the “IGFBP3 expression, IM vs 5-aza-dC, QP” value (MDAH087-1 cells [3]) was −2.61 fold, the “IGFBP4 expression, IM vs 5-aza-dC, QP” value (MDAH087-1 cells [3]) was −0.03 fold and the “KIAA1750 expression, IM vs 5-aza-dC, QP” value (MDAH087-1 cells [3]) was 5.23 fold. The “OPTN expression, IM vs 5-aza-dC, QP” value (MDAH087-1 cells [3]) was 30.54 fold, the “SERPINB2 expression, IM vs 5-aza-dC, QP” value (MDAH087-1 cells [3]) was 22.63 fold and the “STAT1α expression, IM vs 5-aza-dC, QP” value (MDAH087-1 cells [3]) was 1.56 fold. For the same molecule, the “TNFAIP2 expression, IM vs 5-aza-dC, QP” value (MDAH087-1 cells [3]) was 7.28 fold, the “ALDH1A3 expression, IM vs 5-aza-dC, QP” value (MDAH087-10 cells [4]) was 9.71 fold and the “CREG expression, IM vs 5-aza-dC, QP” value (MDAH087-10 cells [4]) was 4.49 fold. The “HSPA2 expression, IM vs 5-aza-dC, QP” value (MDAH087-10 cells [4]) was 3.65 fold, the “IGFBP3 expression, IM vs 5-aza-dC, QP” value (MDAH087-10 cells [4]) was −1.4 fold and −1.40 fold and the “IGFBP4 expression, IM vs 5-aza-dC, QP” value (MDAH087-10 cells [4]) was 3.72 fold. The “IGFBPrP1 expression, IM vs 5-aza-dC, QP” value (MDAH087-10 cells [4]) was 4.10 fold, the “KIAA1750 expression, IM vs 5-aza-dC, QP” value (MDAH087-10 cells [4]) was 31.41 fold and the “OPTN expression, IM vs 5-aza-dC, QP” value (MDAH087-10 cells [4]) was 431.43 fold. For the same molecule, the “SERPINB2 expression, IM vs 5-aza-dC, QP” value (MDAH087-10 cells [4]) was 58.24 fold, the “STAT1α expression, IM vs 5-aza-dC, QP” value (MDAH087-10 cells [4]) was 3.23 fold and the “TNFAIP2 expression, IM vs 5-aza-dC, QP” value (MDAH087-10 cells [4]) was 3.72 fold. For the same molecule, the “ALDH1A3 expression, IM vs 5-aza-dC, QP” value (MDAH087-N cells [5]) was 11.51 fold, the “CLTB expression, IM vs 5-aza-dC, QP” value (MDAH087-N cells [5]) was 7.62 fold and the “HSPA2 expression, IM vs 5-aza-dC, QP” value (MDAH087-N cells [5]) was 46.6 fold. For the same molecule, the “IGFBP3 expression, IM vs 5-aza-dC, QP” value (MDAH087-N cells [5]) was 2.82 fold, the “IGFBP4 expression, IM vs 5-aza-dC, QP” value (MDAH087-N cells [5]) was 4.82 fold and the “IGFBPrP1 expression, IM vs 5-aza-dC, QP” value (MDAH087-N cells [5]) was 5.34 fold. For the same molecule, the “KIAA1750 expression, IM vs 5-aza-dC, QP” value (MDAH087-N cells [5]) was 28.43 fold, the “OPTN expression, IM vs 5-aza-dC, QP” value (MDAH087-N cells [5]) was 6.36 fold and the “SERPINB2 expression, IM vs 5-aza-dC, QP” value (MDAH087-N cells [5]) was 66.72 fold. For the same molecule, the “STAT1α expression, IM vs 5-aza-dC, QP” value (MDAH087-N cells [5]) was 9.05 fold, the “TNFAIP2 expression, IM vs 5-aza-dC, QP” value (MDAH087-N cells [5]) was 39.56 fold and the “p16^INK4a protein expression” value (MDAH087-1 cells [6]; [15]) was “but not expression of p16^INK4a”. For the same molecule, the “p21^CIP1/WAF1 protein expression” value (MDAH087-1 cells [6]; [15]) was “induced expression of p21^CIP1/WAF1”, the IGFBP4 protein (MDAH087-1 cells [6]; after 5-aza-dC treatment, MDAH087-1) was “slight induction” and the STAT1α protein levels (MDAH087-1 cells [6]; untreated vs 5-aza-dC treated immortal MDAH087 cell lines (MDAH087-1)) was “nor was there found a difference in levels”. For the same molecule, the “p16^INK4a protein expression” value (MDAH087-N cells [7]; [16]) was “induced protein expression of p16^INK4a”, the “p21^CIP1/WAF1 protein expression” value (MDAH087-N cells [7]; [16]) was “but not of p21^CIP1/WAF1” and the IGFBP4 protein (MDAH087-N cells [7]; after 5-aza-dC treatment, MDAH087-N) was “slight induction”. For the same molecule, the STAT1α protein levels (MDAH087-N cells [7]; untreated vs 5-aza-dC treated immortal MDAH087 cell lines (MDAH087-N)) was “nor was there found a difference in levels”, the “p16^INK4a protein expression” value (MDAH087-10 cells [8]; [17]) was “but not expression of p16^INK4a” and the “p21^CIP1/WAF1 protein expression” value (MDAH087-10 cells [8]; [17]) was “induced expression of p21^CIP1/WAF1”. For the same molecule, the IGFBP4 protein (MDAH087-10 cells [8]; after 5-aza-dC treatment, MDAH087-10) was “no induction” and the STAT1α protein levels (MDAH087-10 cells [8]; untreated vs 5-aza-dC treated immortal MDAH087 cell lines (MDAH087-10)) was “nor was there found a difference in levels”.

Values joined by “and” are separate entries in the source; they are usually repeats but may differ in a detail not shown here. Identical values can stand only once. Like-named read-outs stand apart in the source and are kept apart here.
